From PubChem BioAssay AID435003 (Sanford-Burnham Center for Chemical Genomics, 2010) come the findings set out here.

The list shows a part of the results, in another mix than the full data. Activity calls are given as the source filed them. Rule as the data show it: active = inhibition above about 50%; inactive = the rest.

A short description of this assay: lowers stimulated NF-kB reporter luminescence – cell-based, uHTS, TCR NF-kB activation inhibitor project, primary screen (AID 435003). The settings on record: Jurkat, PMA/ionomycin-induced NF-kB luciferase reporter, at 4 µM, active compounds read high. In general terms: In a reporter assay the amount or activity of a reporter protein is the signal.
On to `CCOC(=O)N1CCC(Nc2ccc(F)cc2)CC1`, for which the inhibition (commonly the relative decrease from the control value, in per cent) was inactive: -6.34%.

For the compound `O=C(NCC1(N2CCCCC2)CCCCC1)c1ccc(F)cc1`, the inhibition is inactive: 1.79%. The result for `CCCCOc1ccc(C(=O)NCC2(N3CCOCC3)CCCCC2)cc1` reads inactive: -12.6%; that for `Cc1ccc(OCC(C)C)c(CN(CCCl)CCCl)c1`, inactive: 0.716%; that for `CCOC(=O)N1CCC(Nc2cccc(C)c2)CC1`, inactive: -2.62%. For the compound `COc1ccc(C(=O)NCC2(N3CCCCC3)CCCCC2)c(OC)c1OC`, the inhibition was inactive: -7.03%. As for `CC(C)(C)OC(=O)N1CCC(N(C(=O)c2ccccc2)c2ccc(F)cc2)CC1`, the figure is inactive: 2.74%; as for `COc1ccc(C(=O)NCC2(N3CCCCC3)CCCCC2)cc1`, inactive: -20.2%. The result for `O=C(NCC1(N2CCCCC2)CCCCC1)c1cccs1` reads inactive: -5.28%.

As to `O=C(NCC1(N2CCCCC2)CCCCC1)c1ccc(=O)[nH]c1`, the inhibition is inactive: -4.2%. As for `CSc1ccccc1C(=O)NCC1(N2CCCCC2)CCCCC1`, the figure is inactive: -21.6%. In the case of `Cc1cc(C)cc(N(C(=O)c2ccccc2)C2CCN(C(=O)OC(C)(C)C)CC2)c1`, the inhibition was inactive: -35.5%. For `O=C(NCC1(N2CCCCC2)CCCCC1)c1ccc(Cl)nc1`, the inhibition was inactive: -5.04%. As for `O=C(NCC1(N2CCOCC2)CCCCC1)c1cc2ccccc2o1`, the figure is inactive: -4.59%; as for `COc1ccc(Cl)cc1C(=O)NCC1(N2CCOCC2)CCCCC1`, inactive: -5.62%. As for `O=C(OC1CN2CCC1CC2)C1c2ccccc2Oc2ccccc21` (configuration not stated), the figure is inactive: 1.88%; as for `O=C(NCC1(N2CCCCC2)CCCCC1)c1ccc(Cl)s1`, inactive: 4.54%. As for `N#CC1(Nc2ccccc2)CCN(Cc2ccccc2)CC1`, the figure is inactive: 8.8%; as for `CCOC(=O)N1CCC(Nc2ccc(OC)cc2)CC1`, inactive: 14.6%. Take `CC(C)c1ccc(NC2CCN(C(=O)OC(C)(C)C)CC2)cc1`: the inhibition is inactive: -41.9%. As for `CN(C)c1cccc(C(=O)NCC2(N3CCCCC3)CCCCC2)c1`, the figure is inactive: 1.01%; as for `COc1ccc(CN(CCCl)CCCl)cc1Cl`, inactive: -5.08%.

Take `O=C(NCC1(N2CCOCC2)CCCCC1)c1cc(F)c(F)cc1Cl`: the inhibition was inactive: -7.08%. Regarding `COc1cc(OC)c(C(=O)NCC2(N(C)C)CCCCC2)cc1OC`, the inhibition is inactive: -9.78%. Take `O=C(NCC1(N2CCCCC2)CCCCC1)c1cncc(Br)c1`: the inhibition was inactive: -0.97%. The result for `CN1CCC(Nc2cccc(F)c2)CC1` reads inactive: 3.93%; that for `O=C(NCC1(N2CCCCC2)CCCCC1)c1ccc(OC(F)F)cc1`, inactive: -14.4%. As for `N#CC1(Nc2ccccc2)CCN(CCc2ccccc2)CC1`, the figure is inactive: -4.9%. As for `CCN1CCC(Nc2ccc(Cl)cc2)CC1`, the figure is inactive: -17.8%.

As to `O=C(NCC1(N2CCCCC2)CCCCC1)c1cccc([N+](=O)[O-])c1`, the inhibition is inactive: -11.5%. For `CSc1ccc(C(=O)NCC2(N3CCOCC3)CCCCC2)cc1`, the inhibition was inactive: -0.991%. The result for `O=C(NCC1(N2CCCCC2)CCCCC1)c1cccc(C(F)(F)F)c1` reads inactive: 11.4%. Regarding `COc1cc(C(=O)NCC2(N3CCCCC3)CCCCC2)ccc1OC(F)F`, the inhibition is inactive: -0.982%. The result for `O=C(NCC1(N2CCOCC2)CCCCC1)c1cc(=O)[nH]c2ccccc12` reads inactive: 13.3%; that for `CN1CCN(CCOC(=O)C(O)(c2ccccc2)c2ccccc2)CC1`, inactive: 4.36%. `COc1ccc(NC2CCN(C(=O)OC(C)(C)C)CC2)cc1`: the inhibition was inactive: -0.654%. With `CC(C)c1ccc(C(=O)NCC2(N3CCOCC3)CCCCC2)cc1`, the inhibition is inactive: -4.05%.
